{"sequences": {"note": "Chains of the proteins cited; added tags and fusions are not shown.", "UniProt P41145, whole entry": "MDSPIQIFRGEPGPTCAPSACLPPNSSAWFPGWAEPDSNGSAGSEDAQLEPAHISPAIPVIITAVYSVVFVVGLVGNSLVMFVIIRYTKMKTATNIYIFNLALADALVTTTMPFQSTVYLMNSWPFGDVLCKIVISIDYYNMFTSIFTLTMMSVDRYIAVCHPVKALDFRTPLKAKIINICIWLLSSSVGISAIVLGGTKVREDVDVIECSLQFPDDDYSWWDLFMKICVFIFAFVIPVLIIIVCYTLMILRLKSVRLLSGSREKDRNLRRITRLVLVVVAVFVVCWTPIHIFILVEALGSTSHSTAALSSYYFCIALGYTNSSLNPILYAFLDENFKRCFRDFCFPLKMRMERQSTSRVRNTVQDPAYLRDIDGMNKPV"}, "source": "PubChem BioAssay AID1778", "about": "(Sanford-Burnham Center for Chemical Genomics, 2009)", "note": "This is a selection; strong and weak results do not stand in their true shares. Measured potencies and affinities stand elsewhere. Active and inactive are the calls of the source. No stated cut-off is given here; in the data, active means inhibition above about 50%; inactive means the rest."}
{"biological_target": "Kappa-type opioid receptor (Homo sapiens) (UniProt P41145)", "test": "KOR antagonists, beta-arrestin recruitment, cell-based, luminescence, uHTS (AID 1778)", "conditions": "antagonist mode, at 10 µM, hits give high values"}
{"smiles": "CC(C)(C)OC(=O)N1CCC(N(C(=O)c2ccccc2)c2ccc(Cl)cc2)CC1", "inhibition": "inactive: 7.5%"}
{"smiles": "N#Cc1ccc(C(=O)NCC2(N3CCCCC3)CCCCC2)cc1", "inhibition": "inactive: -37.1%"}
{"smiles": "CCCN1CCC(Nc2cc(OC)cc(OC)c2)CC1", "inhibition": "inactive: -3.2%"}
{"smiles": "c1ccc(CN2CCC(Nc3ccccc3)CC2)cc1", "inhibition": "inactive: -5.6%"}
{"smiles": "CN(C)C1(CNC(=O)c2cccc(C#N)c2)CCCCC1", "inhibition": "inactive: -6.7%"}
{"smiles": "COc1ccc(C(=O)NCC2(N3CCOCC3)CCCCC2)cc1OC", "inhibition": "inactive: 16.5%"}
{"smiles": "O=C(OC1CN2CCC1CC2)C1c2ccccc2C=Cc2ccccc21", "note": "(stereo unspecified)", "inhibition": "inactive: -9.3%"}
{"smiles": "N/C(=N\\O)c1c(N)no[n+]1[O-]", "inhibition": "inactive: 9.4%"}
{"smiles": "CCOC(=O)N1CCC(Nc2ccc(C)cc2)CC1", "inhibition": "inactive: 5.5%"}
{"smiles": "CCCOc1ccc(C(=O)NCC2(N(C)C)CCCCC2)cc1", "inhibition": "inactive: 12.7%"}
{"smiles": "O=C(O)C1(Nc2ccccc2)CCN(Cc2ccccc2)CC1", "inhibition": "inactive: 9%"}
{"smiles": "CC(C)(C)OC(=O)N1CCC(Nc2ccccc2)CC1", "inhibition": "inactive: 11.3%"}
{"smiles": "CN1CCC(Nc2ccc(F)c(Cl)c2)CC1", "inhibition": "inactive: -3.2%"}
{"smiles": "CCOc1ncccc1C(=O)NCC1(N2CCOCC2)CCCCC1", "inhibition": "inactive: -11.4%"}
{"smiles": "CCCOc1ccc(C)cc1CN(CCCl)CCCl", "inhibition": "inactive: 14.4%"}
{"smiles": "CN1CCC(Nc2ccc(Cl)cc2)CC1", "inhibition": "inactive: 13.1%"}
{"smiles": "CCC(CO)(C(=O)OC1CN2CCC1CC2)c1ccccc1", "note": "(stereo unspecified)", "inhibition": "inactive: 17.2%"}
{"smiles": "COc1cc(OC)cc(C(=O)NCC2(N3CCOCC3)CCCCC2)c1", "inhibition": "inactive: 16.4%"}
{"smiles": "COc1cccc(C(=O)N(c2cc(C)cc(C)c2)C2CCN(C(=O)OC(C)(C)C)CC2)c1", "inhibition": "inactive: -20.7%"}
{"smiles": "Fc1ccccc1NC1CCN(Cc2ccccc2)CC1", "inhibition": "inactive: -4.1%"}
{"smiles": "COc1cc(OC)cc(C(=O)NCC2(N3CCCCC3)CCCCC2)c1", "inhibition": "inactive: 8.2%"}
{"smiles": "CN(C)c1ccc(C(=O)NCC2(N3CCCCC3)CCCCC2)cc1", "inhibition": "inactive: 16.1%"}
{"smiles": "CCN1CCC(Nc2cccc(F)c2)CC1", "inhibition": "inactive: -12%"}
{"smiles": "COc1ccc(NC2CCN(CCc3ccccc3)CC2)c(OC)c1", "inhibition": "inactive: -18.2%"}
{"smiles": "O=C(NCC1(N2CCCCC2)CCCCC1)c1ccc(F)cc1", "inhibition": "inactive: -36.1%"}
{"smiles": "CCOc1ccc(C)cc1CN(CCCl)CCCl", "inhibition": "inactive: 6%"}
{"smiles": "Cc1ccc(OCC(C)C)c(CN(CCCl)CCCl)c1", "inhibition": "inactive: 3.4%"}
{"smiles": "COc1cc(C(=O)NCC2(N(C)C)CCCCC2)ccc1OC(F)F", "inhibition": "inactive: 2.3%"}
{"smiles": "CCOC(=O)N1CCC(Nc2cccc(C)c2)CC1", "inhibition": "inactive: 5.1%"}
{"smiles": "CSc1ccccc1C(=O)NCC1(N2CCCCC2)CCCCC1", "inhibition": "inactive: -29.9%"}
{"smiles": "O=C(NCC1(N2CCCCC2)CCCCC1)c1ccc(=O)[nH]c1", "inhibition": "inactive: 4.3%"}
{"smiles": "CC(C)(C)OC(=O)N1CCC(N(C(=O)c2ccccc2)c2ccc(F)cc2)CC1", "inhibition": "inactive: -17.4%"}
{"smiles": "COc1ccc(C(=O)NCC2(N3CCCCC3)CCCCC2)c(OC)c1OC", "inhibition": "inactive: -19.7%"}
{"smiles": "COc1ccc(C(=O)NCC2(N3CCCCC3)CCCCC2)cc1", "inhibition": "inactive: 0%"}
{"smiles": "CCOC(=O)N1CCC(Nc2ccc(OC)cc2)CC1", "inhibition": "inactive: -1.1%"}
{"smiles": "O=C(OC1CN2CCC1CC2)C1c2ccccc2Oc2ccccc21", "note": "(stereo unspecified)", "inhibition": "inactive: -1.1%"}
{"smiles": "N#CC1(Nc2ccccc2)CCN(Cc2ccccc2)CC1", "inhibition": "inactive: -14.1%"}
{"smiles": "O=C(NCC1(N2CCOCC2)CCCCC1)c1cc2ccccc2o1", "inhibition": "inactive: -12.1%"}
{"smiles": "Cc1cc(C)cc(N(C(=O)c2ccccc2)C2CCN(C(=O)OC(C)(C)C)CC2)c1", "inhibition": "inactive: 14.2%"}
{"smiles": "COc1cc(OC)c(C(=O)NCC2(N(C)C)CCCCC2)cc1OC", "inhibition": "inactive: -49.3%"}
{"smiles": "CN(C)c1cccc(C(=O)NCC2(N3CCCCC3)CCCCC2)c1", "inhibition": "inactive: -13%"}
{"smiles": "CC(C)c1ccc(NC2CCN(C(=O)OC(C)(C)C)CC2)cc1", "inhibition": "inactive: 9.4%"}
{"smiles": "CCCOc1ccc(C(=O)NCC2(N(C)C)CCCCC2)cc1OC", "inhibition": "inactive: 21.3%"}
{"smiles": "O=C(NCC1(N2CCCCC2)CCCCC1)c1cccc([N+](=O)[O-])c1", "inhibition": "inactive: 0.8%"}
{"smiles": "N#CC1(Nc2ccccc2)CCN(CCc2ccccc2)CC1", "inhibition": "inactive: -7.4%"}
{"smiles": "CCN1CCC(Nc2ccc(Cl)cc2)CC1", "inhibition": "inactive: 8.6%"}
{"smiles": "O=C(NCC1(N2CCCCC2)CCCCC1)c1ccc(OC(F)F)cc1", "inhibition": "inactive: -20.5%"}
{"smiles": "COc1ccc(NC2CCN(C(=O)OC(C)(C)C)CC2)cc1", "inhibition": "inactive: 8.6%"}
{"smiles": "COc1cc(C(=O)NCC2(N3CCCCC3)CCCCC2)ccc1OC(F)F", "inhibition": "inactive: -6%"}
{"smiles": "O=C(NCC1(N2CCOCC2)CCCCC1)c1cc(=O)[nH]c2ccccc12", "inhibition": "inactive: -46.3%"}
{"smiles": "O=C(NCC1(N2CCCCC2)CCCCC1)c1cccc(C(F)(F)F)c1", "inhibition": "inactive: -6%"}
